Test results reported in US20090281099A1, “SUBSTITUTED PYRAZINONE DERIVATIVES FOR USE AS A MEDICINE” (priority 2006, published 2009).

Sequences of proteins named here, by UniProt entry; tags and fusion partners are left off.
UniProt P18825, whole entry: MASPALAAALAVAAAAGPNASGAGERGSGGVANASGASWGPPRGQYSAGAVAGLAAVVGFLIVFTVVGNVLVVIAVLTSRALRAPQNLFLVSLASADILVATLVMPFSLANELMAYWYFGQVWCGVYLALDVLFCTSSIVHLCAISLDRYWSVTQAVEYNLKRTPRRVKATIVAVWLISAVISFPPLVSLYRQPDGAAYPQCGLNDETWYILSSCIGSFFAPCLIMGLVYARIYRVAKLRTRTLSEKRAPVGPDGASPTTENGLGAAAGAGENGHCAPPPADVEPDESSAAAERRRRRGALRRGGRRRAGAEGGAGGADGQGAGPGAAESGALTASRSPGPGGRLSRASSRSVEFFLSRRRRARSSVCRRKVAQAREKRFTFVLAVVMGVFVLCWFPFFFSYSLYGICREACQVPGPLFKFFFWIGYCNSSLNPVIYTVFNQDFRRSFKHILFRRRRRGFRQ
UniProt P08913, whole entry: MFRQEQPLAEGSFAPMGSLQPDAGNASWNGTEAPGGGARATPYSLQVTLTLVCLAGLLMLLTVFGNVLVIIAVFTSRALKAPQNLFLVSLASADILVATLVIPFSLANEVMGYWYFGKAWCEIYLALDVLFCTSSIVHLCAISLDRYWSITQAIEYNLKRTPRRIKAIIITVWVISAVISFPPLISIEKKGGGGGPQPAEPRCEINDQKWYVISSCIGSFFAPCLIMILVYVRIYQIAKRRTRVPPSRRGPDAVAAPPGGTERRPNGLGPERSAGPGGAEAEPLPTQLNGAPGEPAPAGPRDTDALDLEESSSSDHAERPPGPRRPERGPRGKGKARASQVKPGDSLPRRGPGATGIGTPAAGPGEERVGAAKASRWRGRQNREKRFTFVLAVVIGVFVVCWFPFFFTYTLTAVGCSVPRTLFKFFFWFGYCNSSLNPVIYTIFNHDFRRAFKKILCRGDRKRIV
UniProt P31645, whole entry: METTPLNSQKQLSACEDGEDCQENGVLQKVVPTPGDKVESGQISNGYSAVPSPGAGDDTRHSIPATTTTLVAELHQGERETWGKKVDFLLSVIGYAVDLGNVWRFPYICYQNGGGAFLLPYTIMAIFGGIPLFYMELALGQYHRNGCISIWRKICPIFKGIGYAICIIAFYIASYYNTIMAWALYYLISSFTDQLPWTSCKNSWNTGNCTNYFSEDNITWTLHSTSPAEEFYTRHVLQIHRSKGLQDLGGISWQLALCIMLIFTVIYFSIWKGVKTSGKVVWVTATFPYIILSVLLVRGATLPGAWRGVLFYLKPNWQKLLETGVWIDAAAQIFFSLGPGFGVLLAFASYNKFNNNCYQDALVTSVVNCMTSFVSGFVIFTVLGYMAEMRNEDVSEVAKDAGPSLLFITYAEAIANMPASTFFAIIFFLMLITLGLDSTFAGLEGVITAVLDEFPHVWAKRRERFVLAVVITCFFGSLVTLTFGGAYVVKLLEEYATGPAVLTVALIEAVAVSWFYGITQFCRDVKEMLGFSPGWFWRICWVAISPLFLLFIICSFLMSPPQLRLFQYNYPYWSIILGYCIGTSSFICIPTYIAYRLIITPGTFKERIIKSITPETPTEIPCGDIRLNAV

Columns and labels:
hα2C receptor = hα2C receptor (Homo sapiens, UniProt P18825); experiment: Radioligand binding experiment for α2C-adrenoceptor ([3H]-raulwolscine, CHO cell membranes); conditions: [3H]raulwolscine 1 nM, membranes of CHO cells transfected with human α2C receptor
hα2A receptor = hα2A receptor (Homo sapiens, UniProt P08913); experiment: Radioligand binding experiment for hα2A receptor ([3H]-raulwolscine, CHO cell membranes); conditions: [3H]raulwolscine 1 nM, membranes of CHO cells transfected with human α2A receptor
5HT-Transporter = 5HT-Transporter (Homo sapiens, UniProt P31645); experiment: Binding experiment for the 5HT-transporter ([3H]paroxetine, human platelet membranes); conditions: [3H]paroxetine 0.5 nM

Structure (SMILES) | h-α2C pIC50 (hα2C receptor) | h-α2A pIC50 (hα2A receptor) | h-5HTT pIC50 (5HT-Transporter) | h-α2C pIC50 (hα2C receptor; tested form: HCl) | h-α2A pIC50 (hα2A receptor; tested form: HCl) | h-5HTT pIC50 (5HT-Transporter; tested form: HCl)
CN1CCN(Cc2ccc(-n3ccnc(NC4CCN(CCOc5ccccc5)CC4)c3=O)cc2)CC1 | 8.5 | 6.8 | 5.5 | – | – | –
O=c1c(NC2CCN(CCOc3ccccc3)CC2)nccn1-c1ccc(CN2CCOCC2)cc1 | – | – | – | 8.3 | 7.0 | <5
CCOC(=O)N1CCC(NCc2ccc(-n3ccnc(NC4CCN(CCOc5ccccc5)CC4)c3=O)cc2)CC1 | 7.9 | 6.5 | 5.2 | – | – | –
